{
  "sequences": {"note": "By UniProt entry, the sequences of proteins in these tests, tags left out. Where a name states a change or a piece, a line headed by the entry shows the natural chain unless it says otherwise.", "UniProt P05102": "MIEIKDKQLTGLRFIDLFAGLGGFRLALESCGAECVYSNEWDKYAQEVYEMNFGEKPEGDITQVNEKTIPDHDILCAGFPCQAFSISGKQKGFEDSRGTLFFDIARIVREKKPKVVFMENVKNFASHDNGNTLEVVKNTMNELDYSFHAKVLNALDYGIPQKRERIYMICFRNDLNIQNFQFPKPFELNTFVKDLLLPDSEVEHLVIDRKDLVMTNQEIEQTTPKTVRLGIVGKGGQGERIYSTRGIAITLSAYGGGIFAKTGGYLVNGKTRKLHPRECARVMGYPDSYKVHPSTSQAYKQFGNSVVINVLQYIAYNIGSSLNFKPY", "UniProt P15840": "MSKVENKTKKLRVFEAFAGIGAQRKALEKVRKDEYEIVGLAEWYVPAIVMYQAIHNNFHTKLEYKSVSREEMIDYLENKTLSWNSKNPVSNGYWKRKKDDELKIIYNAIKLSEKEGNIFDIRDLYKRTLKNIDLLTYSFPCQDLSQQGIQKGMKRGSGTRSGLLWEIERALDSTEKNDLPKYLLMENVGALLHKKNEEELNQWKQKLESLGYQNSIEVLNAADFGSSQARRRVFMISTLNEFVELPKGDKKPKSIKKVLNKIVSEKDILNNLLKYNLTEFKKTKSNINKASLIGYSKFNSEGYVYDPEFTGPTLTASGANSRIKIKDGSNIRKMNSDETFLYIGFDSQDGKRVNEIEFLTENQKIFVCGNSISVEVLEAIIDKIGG", "UniProt P00472": "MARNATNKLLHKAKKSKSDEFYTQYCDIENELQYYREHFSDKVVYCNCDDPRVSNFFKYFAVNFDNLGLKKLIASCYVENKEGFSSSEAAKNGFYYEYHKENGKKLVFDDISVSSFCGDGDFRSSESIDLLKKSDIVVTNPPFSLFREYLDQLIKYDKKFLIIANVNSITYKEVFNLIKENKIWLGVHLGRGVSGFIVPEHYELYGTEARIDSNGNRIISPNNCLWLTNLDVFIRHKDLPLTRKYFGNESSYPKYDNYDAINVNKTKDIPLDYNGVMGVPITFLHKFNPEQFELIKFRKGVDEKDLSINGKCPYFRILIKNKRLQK", "UniProt P14385": "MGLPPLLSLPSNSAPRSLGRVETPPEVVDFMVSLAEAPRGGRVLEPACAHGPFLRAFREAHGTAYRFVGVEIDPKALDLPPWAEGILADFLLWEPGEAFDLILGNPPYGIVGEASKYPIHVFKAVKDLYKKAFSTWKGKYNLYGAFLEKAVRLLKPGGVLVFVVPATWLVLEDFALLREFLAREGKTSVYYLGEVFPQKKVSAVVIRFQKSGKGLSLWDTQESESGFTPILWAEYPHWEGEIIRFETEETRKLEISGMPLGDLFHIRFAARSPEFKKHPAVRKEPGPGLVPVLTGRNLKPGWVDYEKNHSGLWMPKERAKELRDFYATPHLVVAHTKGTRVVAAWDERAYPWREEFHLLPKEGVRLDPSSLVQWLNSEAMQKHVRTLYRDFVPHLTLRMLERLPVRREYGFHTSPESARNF"},
  "source": "patent US7465544B2",
  "about": "“Synthetic cofactor analogs of S-adenosylmethionine as ligatable probes of biological methylation and methods for their use” (Wisconsin Alumni Research Foundation, priority 2006, dated 2008)",
  "key": {"[1]": {"tested_on": "duplex 6 (duplex 5 modified with 24a by M.TaqI)", "experiment": "Cu(I)-mediated Haber-Weiss DNA strand scission, DNA modified with M.TaqI", "settings": "20 μM CuSO4, 5.8 mM MPA, relative to all scission products observed"}, "[2]": {"tested_on": "duplex 7 (duplex 5 modified with 24a by M.HhaI)", "experiment": "Cu(I)-mediated Haber-Weiss DNA strand scission, DNA modified with M.HhaI", "settings": "after ligation and copper treatment; 20 μM CuSO4, 5.8 mM MPA, pH 8, 2 hours 37° C."}, "M.HhaI": {"target": "M.HhaI (Haemophilus parahaemolyticus, UniProt P05102)", "experiment": "M.HhaI-dependent alkylation of synthetic oligonucleotide duplex (DPAGE)", "assay_type": "biochemical", "settings": "0.5 μM duplex, 0.6 μM M.HhaI, 37° C., margin of error ±3%"}, "M.SssI": {"target": "M.SssI (Spiroplasma monobiae, UniProt P15840)", "experiment": "M.SssI-dependent alkylation of synthetic oligonucleotide duplex (DPAGE)", "assay_type": "biochemical", "settings": "0.5 μM duplex, 0.6 μM M.SssI, 37° C., margin of error ±3%"}, "duplex DNA": {"tested_on": "duplex DNA", "experiment": "MTase-independent (non-specific) DNA alkylation controls", "settings": "5 μM 67 without MTase; substrates of all four enzymes; margin of error ±3%"}, "M.EcoRI": {"target": "M.EcoRI (Escherichia coli, UniProt P00472)", "experiment": "M.EcoRI-dependent alkylation of synthetic oligonucleotide duplex (DPAGE)", "assay_type": "biochemical", "settings": "0.5 μM duplex, 0.6 μM M.EcoRI, 37° C., margin of error ±3%"}, "M.TaqI": {"target": "M.TaqI (Thermus aquaticus, UniProt P14385)", "experiment": "M.TaqI-dependent alkylation of synthetic oligonucleotide duplex (DPAGE)", "assay_type": "biochemical", "settings": "0.5 μM duplex, ~1.2 μM M.TaqI, 37° C., margin of error ±3%"}, "[3]": {"settings": "after ligation with OP-phosphine, pH 8, 2 hours 37° C."}},
  "note": "Counter-ions that a name gives are not always drawn.",
  "data": [
    {"smiles": "[N-]=[N+]=Nc1nc2c(N)ncnc2n1[C@@H]1O[C@H](CN2CC2)C(O)[C@@H]1O", "note": "(some centres unmarked) [24a, 8-azido-5′-aziridino-5′-deoxyadenosine]", "values": [
      {"measurement": "yield of major scission product at T", "setting": "[1]; T immediately 5′ of the recognition site", "result": 15, "unit": "%"},
      {"measurement": "yield of major scission product at A", "setting": "[1]; [3]", "result": 12, "unit": "%"},
      {"measurement": "yield of major scission product at G", "setting": "[1]; [3]", "result": 13, "unit": "%"},
      {"measurement": "scission yield of major scission product at C", "setting": "[2]", "result": 15, "unit": "%"},
      {"measurement": "scission yield of major scission product at G (first listed)", "setting": "[2]", "result": 16, "unit": "%"},
      {"measurement": "scission yield of major scission product at G (second listed)", "setting": "[2]", "result": 13, "unit": "%"}
    ]},
    {"smiles": "Nc1ncnc2c1ncn2[C@@H]1O[C@H](CN(CCI)CC[C@H](N)C(=O)O)C(O)[C@@H]1O", "note": "(some centres unmarked) [compound 67, 5′-(diaminobutyric acid)-N-iodoethyl-5′-deoxyadenosine ammonium hydrochloride]", "values": [
      {"measurement": "Percent yield of DNA alkylation", "setting": "M.HhaI; lane 2: 0.1 μM 67", "result": 15, "unit": "%"},
      {"measurement": "Percent yield of DNA alkylation", "setting": "M.HhaI; lane 3: 0.5 μM 67", "result": 38, "unit": "%"},
      {"measurement": "Percent yield of DNA alkylation", "setting": "M.HhaI; lane 4: 1.0 μM 67", "result": 41, "unit": "%"},
      {"measurement": "Percent yield of DNA alkylation", "setting": "M.HhaI; lane 5: 5 μM 67", "result": 42, "unit": "%"},
      {"measurement": "Percent yield of DNA alkylation", "setting": "M.SssI; lane 2: 0.1 μM 67", "result": 20, "unit": "%"},
      {"measurement": "Percent yield of DNA alkylation", "setting": "M.SssI; lane 3: 0.5 μM 67", "result": 25, "unit": "%"},
      {"measurement": "Percent yield of DNA alkylation", "setting": "M.SssI; lane 4: 1.0 μM 67", "result": 25, "unit": "%"},
      {"measurement": "Percent yield of DNA alkylation", "setting": "M.SssI; lane 5: 5 μM 67", "result": 26, "unit": "%"},
      {"measurement": "yields of MTase-independent alkylation", "setting": "duplex DNA", "result": "< 1", "unit": "%"},
      {"measurement": "Percent yield of DNA alkylation", "setting": "M.EcoRI; lane 2: 0.1 μM 67", "result": 7, "unit": "%"},
      {"measurement": "Percent yield of DNA alkylation", "setting": "M.EcoRI; lane 3: 0.5 μM 67", "result": 20, "unit": "%"},
      {"measurement": "Percent yield of DNA alkylation", "setting": "M.EcoRI; lane 4: 1.0 μM 67", "result": 28, "unit": "%"},
      {"measurement": "Percent yield of DNA alkylation", "setting": "M.EcoRI; lane 5: 5 μM 67", "result": 53, "unit": "%"},
      {"measurement": "Percent yield of DNA alkylation", "setting": "M.TaqI; lane 2: 0.1 μM 67", "result": 6, "unit": "%"},
      {"measurement": "Percent yield of DNA alkylation", "setting": "M.TaqI; lane 3: 0.5 μM 67", "result": 9, "unit": "%"},
      {"measurement": "Percent yield of DNA alkylation", "setting": "M.TaqI; lane 4: 1.0 μM 67", "result": 13, "unit": "%"},
      {"measurement": "Percent yield of DNA alkylation", "setting": "M.TaqI; lane 5: 5 μM 67", "result": 12, "unit": "%"}
    ]}
  ]
}
